The text below walks through data of EP4831188A1, “GLYCYRRHETINIC ACID DERIVATIVE AND USE THEREOF” (dated 2026).

In one assay the test system is guinea pigs. Briefly: Inhibitory activity assay against ear swelling in guinea pigs (DMSO/ethanol inflammatory agent). The note with it: topical, 200 µL per ear; test compounds and glycyrrhetinic acid 40 mg/mL in absolute ethanol; hydrocortisone butyrate cream 1 mg/g; 45 min after modeling. An excerpt:
• 2.1 Animals: Ordinary grade guinea pigs, weighing about 300 g. • 2.2 Reagents: Inflammatory agent made from 80% dimethyl sulfoxide (DMSO) and 20% absolute ethanol; DMSO; absolute ethanol, analytical grade.
Ordinary grade guinea pigs were randomly divided into groups, with 10 animals in each group, half male and half female. The inner and outer sides of the left and right ears of the guinea pigs were shaved, and 4 points were marked on the medial side of the left ear margin. The thickness of these 4 points on the auricle of the guinea pigs was measured using a vernier caliper, and the average value was obtained as the baseline before administration. The corresponding drugs were applied dropwise to the auricles of the guinea pigs in each test group (Compound 1, Compound 2, Compound 3, Compound 9, Compound 16, Compound 17, Compound 18, Compound 21) and the glycyrrhetinic acid group, with 200 µL per ear. The blank control group and the model group were treated with the corresponding volume of absolute ethanol only. The positive control hydrocortisone butyrate group was treated with an equal volume of hydrocortisone butyrate cream. After 30 min of administration, the drugs were wiped off. The animals in the model group and the test groups were treated with the inflammatory agent on both sides of the left auricle (50 µL per ear). The blank control group was treated with the corresponding volume of normal saline only. At 45 min after modeling, the thickness of these 4 points was measured using a vernier caliper, and the average value was obtained. The difference was calculated as the ear swelling value of the guinea pigs. Inhibition rate of swelling value = (Swelling value of the model group - Swelling value of the sample group) / Swelling value of model group × 100%, wherein the sample group includes each test group, glycyrrhetinic acid group, and positive control hydrocortisone butyrate group.
• Test compounds and glycyrrhetinic acid: Dissolved in absolute ethanol to prepare a solution with a concentration of 40 mg/mL. • Positive control: Commercially available hydrocortisone butyrate cream (from Hubei Heng'an Fulin Pharmaceutical Co., Ltd., specification: 1 mg/g).

The next assay relates to RAW264.7 cells. As to the kind of experiment: Anti-inflammatory activity assay in cells (LPS-induced IL-1β content, ELISA). The note with it: LPS 100 ng/mL, 24 h. How it is done:
• 1.1 Cells: RAW264.7 cells, purchased from PROCELL, lot No.: JYBR1POD9R. • 1.2 Reagents: Lipopolysaccharide (LPS), purchased from SIGMA; DMEM cell culture medium, purchased from GIBCO; Mouse IL-1β ELISA Kit, purchased from Ruixin Bio.
RAW264.7 cells were seeded into a 96-well plate at 1×10^5 cells/well, with 100 µL of cell suspension added to each well. 50 µL of drugs at corresponding gradient concentrations (0.00128, 0.0064, 0.032, 0.16, 0.8, 4, 20, and 100 µM, respectively) were added to the wells of the test groups (Compounds 1 to 27) and the control drug groups (glycyrrhetinic acid and Comparative Compounds 1 to 10). The corresponding volume of culture medium was added to the wells of the blank control group and the model group. After 1 h of incubation, 50 µL of LPS (final LPS concentration of 100 ng/mL) was added to the wells of the model group, the control drug groups, and the test groups. After incubation in an incubator at 37°C and 5% CO2 for 24 h, the supernatant was collected by centrifugation at 1000 rpm for 5 min. The IL-1β content was determined according to the instructions of the kit, and the IC50 values were calculated.
On the technique in general: An ELISA detects its analyte on a solid surface through an enzyme-linked reagent.

In another assay the test system is ICR mice. Briefly: Inhibitory activity assay against ear swelling in ICR mice (phorbol ester, TPA). The note with it: right ear, test compounds 3% cream, pimecrolimus cream 10 mg/g, compound dexamethasone acetate cream 0.75 mg/g, 50 µL. The procedure:
• ICR mice, male, 20±2 g. • 3.2 Reagents: Inflammatory agent (phorbol ester (TPA)).
ICR mice were randomly divided into groups, with 8 mice in each group. The thickness of the right ear of each animal was measured using a micrometer. Subsequently, except for the blank control group, all mice in other groups were administered 20 µL of 0.03% TPA on both the inner and outer sides of the right ear (10 µL per side) to induce inflammation. The mice were dosed once at 1 h before modeling and 1 h after modeling, respectively. The test groups (Compound 1, Compound 16) received a dose volume of 50 µL each time. The blank control group and the model group (with matrix) were treated with the corresponding volumes of blank matrix (pimecrolimus cream matrix). The positive control group was treated with an equal volume of pimecrolimus cream or compound dexamethasone acetate cream. Before modeling, the ears should be cleaned prior to TPA application. Ear thickness measurement: The thickness of the right ear was measured at 0 h, 2 h, 4 h, and 6 h after TPA induction.
• Test compounds: The formulations were prepared with reference to pimecrolimus cream (from MEDA Manufacturing) (test compound concentration: 3%). • Positive control: Commercially available compound dexamethasone acetate cream (from China Resources Sanjiu Medical & Pharmaceutical Co., Ltd., specification: 0.75 mg/g); commercially available pimecrolimus cream (from MEDA Manufacturing, specification: 10 mg/g).

In a further assay the test system is BALB/c mice. Briefly: Chloroquine-induced pruritus in mice. The settings on record: 100 mg once daily for 3 days, test compounds 3% cream, pimecrolimus cream 10 mg/g. The procedure:
• 6.1 Animals: Balb/c mice, female. • 6.2 Reagents: Chloroquine; normal saline.
After 3 days of adaptive feeding, 50 female Balb/c mice were randomly divided into groups, with 10 mice in each group. The hair on a 2×3 cm^2 area of the back of each mouse was completely removed using depilatory cream. Except for the blank control group, the test groups (Compound 1, Compound 16) and the model group were treated with the corresponding drugs or matrix (pimecrolimus cream matrix) at the depilated site, 100 mg per time, once daily for 3 consecutive days. The positive control group was treated with the corresponding weight of pimecrolimus cream. Thirty minutes after the last administration, chloroquine (40 mg/kg) was injected subcutaneously. The blank control group was injected subcutaneously with the corresponding volume of normal saline only. The number of scratching bouts within 20 min after chloroquine injection was recorded.
• Test compounds: The formulations were prepared with reference to pimecrolimus cream (test compound concentration: 3%). • Positive control: Commercially available pimecrolimus cream (from MEDA Manufacturing, specification: 10 mg/g).

The next assay has as its system SD rats. As to the kind of experiment: Radiation dermatitis assay (X-ray, 25 Gy). The settings on record: 100 mg once daily for 28 days, test compounds 0.5% cream, triethanolamine cream 0.67%, hydrocortisone butyrate cream 1 mg/g. How it is done: • 5.1 Animals: SD rats, SPF grade, male, 230-250 g. • 5.2 Equipment: RS 2000·Pro 225 Rad Source X-ray Irradiator; SpectraMax i3 Multifunctional Microplate Reader.
Eighty SD rats were randomly divided into groups, with 10 rats in each group. Except for the blank control group, all rats were subjected to modeling using a Rad Source X-ray irradiator. The hair on the irradiation site was removed 24 hours before irradiation. On the day of irradiation, the rats were anesthetized and received a single X-ray irradiation on the posterior buttock at a dose of 25 Gy, a dose rate of 4 Gy/min, and an irradiation area of 2×2 cm^2. On the second day after irradiation, the test groups (Compound 1, Compound 16, Compound 21) received the corresponding drugs, 100 mg per time, once daily for 28 consecutive days. The blank control group and the model (with matrix) group received the corresponding weight of blank matrix (triethanolamine cream matrix). The positive control group was treated with the corresponding weight of triethanolamine cream or hydrocortisone butyrate cream. At the end of administration, the damaged skin was scored according to erythema/darkening, edema/papules, exudation/crusting, and erosion, with reference to the scoring criteria for atopic dermatitis. After scoring, skin from the damaged site was collected and homogenized, and the content of inflammatory cells in the skin was detected using an ELISA kit. Additional skin was collected, fixed, and then stained with HE, and the number of inflammatory cells was observed.
• Test compounds: The formulations were prepared with reference to triethanolamine cream (test compound concentration: 0.5%). • Positive controls: Commercially available triethanolamine cream (from JOHNSON & JOHNSON SANTE BEAUTE FRANCE, specification: 0.67%); hydrocortisone butyrate cream (from Hubei Heng'an Fulin Pharmaceutical Co., Ltd., specification: 1 mg/g).

A further assay deals with HaCaT cells. As to the kind of experiment: In vitro inhibition of ROS release assay (8 Gy X-ray, flow cytometry). The settings on record: 24 h after 8 Gy irradiation; Compound 16 0.5 µM, triethanolamine 0.5 µM, hydrocortisone butyrate 10 nM. The procedure:
• Culture medium: DMEM containing 10% FBS; • Test article: Compound 16; control drugs: triethanolamine, hydrocortisone butyrate; • Reagent: ROS assay kit (Beyotime); • Instruments: RS 2000·Pro 225 Rad Source X-ray irradiator; flow cytometer.
The cells were divided into a blank control group, a model group, a Compound 16 group, a triethanolamine group, and a hydrocortisone butyrate group, with 3 replicate wells per group. The cells were cultured in DMEM containing 10% FBS in a 37°C, 5% CO2 incubator. The blank control group and the model group were treated with the corresponding volume of blank solvent (DMSO) only. The Compound 16 group was treated with 0.5 µM Compound 16. The triethanolamine group was treated with 0.5 µM triethanolamine. The hydrocortisone butyrate group was treated with 10 nM hydrocortisone butyrate.
At the end of administration, the cells in the model group, the Compound 16 group, the triethanolamine group, and the hydrocortisone butyrate group were exposed to 8 Gy X-ray irradiation. The blank control group received no irradiation. The intracellular ROS levels in each group were detected by flow cytometry 24 h after irradiation, according to the instructions of the ROS assay kit.
A general note: In flow cytometry, cells or beads pass a laser one at a time.

Marks after values point to notes of the source that are not given here.

As usually defined, the IC50 is the concentration that gives 50% inhibition.

As for `CC1(C)[C@@H](O)CC[C@]2(C)[C@H]3C(=O)C=C4[C@@H]5C[C@@](C)(C(=O)O)CC[C@]5(C)CC[C@@]4(C)[C@]3(C)CC[C@@H]12`, the “Ear swelling inhibition rate” value with guinea pigs is “C (40% or less)”. The IC50 in the assay on RAW264.7 cells was > 1000 nM.

Turning to `CC[C@@H]1/C=C(\C)C[C@H](C)C[C@H](OC)[C@H]2O[C@@](O)(C(=O)C(=O)N3CCCC[C@H]3C(=O)O[C@H](/C(C)=C/[C@@H]3CC[C@H](Cl)[C@H](OC)C3)[C@H](C)[C@@H](O)CC1=O)[C@H](C)C[C@@H]2OC`, the Thickness in the assay on ICR mice (0 h after TPA induction) amounted to 0.211 ± 0.008 mm; in the assay on ICR mice (2 h after TPA induction), 0.268 ± 0.035 mm; in the assay on ICR mice (4 h after TPA induction), 0.32±0.035 mm; in the assay with ICR mice (6 h after TPA induction) it was 0.339±0.046 mm. The “Number of scratching bouts” value in the assay on BALB/c mice (0-10 min after chloroquine 40 mg/kg s.c.) is 22±9; in the assay with BALB/c mice (0-20 min after chloroquine 40 mg/kg s.c.), 44+12; in the assay with BALB/c mice (10-20 min after chloroquine 40 mg/kg s.c.) it was 22±6.

Regarding `CCCC(=O)O[C@]1(C(=O)CO)CC[C@H]2[C@@H]3CCC4=CC(=O)CC[C@]4(C)[C@H]3[C@@H](O)C[C@@]21C`, in the assay with SD rats (end of administration), the “Score (skin lesion score of radiation dermatitis)” value was 5.5+0.8*. For the same molecule, in the assay with SD rats (skin, HE staining), the Number of inflammatory cells was 192 ··. Also, in the assay on guinea pigs, the “Ear swelling inhibition rate” value is listed as “A (greater than 70%)”. For the same molecule, the ROS level in the assay on HaCaT cells is 11.8 ···.
